Data: patent US11702418B2, “SOS1 inhibitors” (priority 2019, dated 2023)
Like-named read-outs stand apart in the source and are kept apart here.

By UniProt entry, the sequences of proteins in these tests, tags left out. Residues count along the entry.
UniProt Q07889, 560-1049: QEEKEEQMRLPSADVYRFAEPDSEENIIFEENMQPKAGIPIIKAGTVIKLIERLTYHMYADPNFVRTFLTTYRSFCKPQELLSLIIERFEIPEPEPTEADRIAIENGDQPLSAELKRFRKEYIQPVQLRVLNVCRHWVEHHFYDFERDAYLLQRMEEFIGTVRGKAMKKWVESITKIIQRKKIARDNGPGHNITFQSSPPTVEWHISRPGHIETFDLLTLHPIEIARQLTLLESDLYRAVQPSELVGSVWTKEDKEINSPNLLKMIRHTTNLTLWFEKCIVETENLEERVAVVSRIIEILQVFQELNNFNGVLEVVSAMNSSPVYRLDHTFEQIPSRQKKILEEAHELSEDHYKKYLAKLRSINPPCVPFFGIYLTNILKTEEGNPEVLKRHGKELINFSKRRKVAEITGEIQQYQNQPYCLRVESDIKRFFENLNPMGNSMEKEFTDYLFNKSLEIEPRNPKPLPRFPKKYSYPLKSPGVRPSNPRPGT

Legend:
[1] = target: recombinant human SOS1 polypeptide (amino acids 560-1049) (Homo sapiens (Human), UniProt Q07889); settings: read-out: Ki, Inhibition of Labeled Tracer Binding to SOS1
pERK in MKN1 cells = test: cells; type: cell-based; settings: Homo sapiens
[2] = HTRF displacement, Cy5 labelled tracer, Morrison equation for competitive binding
[3] = MKN-1, pERK inhibition, In-Cell Western, MKN1 or H358 cells (Table 24 does not say which), 0.5-1 hour incubation, read-out: IC50

## Cc1c([C@@H](C)Nc2nnc(N(C)C)c3ccc(N4CCNCC4)cc23)cccc1C(F)(F)F [9-2]
[1]; [2]
  Ki: 0.00093 µM
pERK in MKN1 cells; MKN-1
  IC50: 0.176 µM

## Cc1c([C@@H](C)Nc2nnc(C)c3cnc(N4CCOCC4)cc23)cccc1C(F)(F)F [Example 6-12, (R)-4-methyl-N-(1-(2-methyl-3-(trifluoromethyl)phenyl)ethyl)-7-morpholinopyrido[3,4-d]pyridazin-1-amine]
[1]; [2]
  Ki: 0.00088 µM
pERK in MKN1 cells; [3]
  IC50: 0.03 µM

## Cc1c([C@@H](C)Nc2nnc(C)c3ccc(N4CCN(C)C(=O)C4)cc23)cccc1C(F)(F)F [Example 6-7, (R)-1-methyl-4-(1-methyl-4-((1-(2-methyl-3-(trifluoromethyl)phenyl)ethyl)amino)phthalazin-6-yl)piperazin-2-one]
[1]; [2]
  Ki: 0.00029 µM
pERK in MKN1 cells; [3]
  IC50: 0.074 µM

## Cc1c(C#N)cccc1[C@@H](C)Nc1nnc(C)c2cc(C(F)(F)F)c(N3CCOCC3)cc12 [Example 19-2, (R)-2-methyl-3-(1-((4-methyl-7-morpholino-6-(trifluoromethyl)phthalazin-1-yl)amino)ethyl)benzonitrile]
[1]
  Ki: 0.095 µM
pERK in MKN1 cells; MKN-1, pERK inhibition, In-Cell Western, MKN1 or H358 cells (Table 24 does not say which), 0.5-1 hour incubation
  IC50: 0.779 µM
